Consider one compound from patent publication US12636319B2, “Pharmaceutical composition for preventing or treating atopic disease containing Akkermansia muciniphila strain” (ENTEROBIOME INC., priority 2020, dated 2026).

In brackets after ≈: the same amount, converted by molar mass.

This assay has as its system Bacteroides thetiotaomicron ATCC 29741. Put plainly: MIC by CLSI broth microdilution, QC strain. The following applies: ATCC29741.

`CCC[C@@H]1C[C@@H](C(=O)N[C@@H]([C@H]2O[C@H](SC)[C@H](O)[C@@H](O)[C@H]2O)[C@H](C)Cl)N(C)C1` [CLI, clindamycin]: the MIC stood at 4 µg/mL (≈ 9.41 µM).
